The experiment has as its target human PD-1 (human) (UniProt Q15116). The experiment is described as follows: cell-based or functional assay.

Protein sequences, listed by entry. Tags and fused reporters are not part of them. Residues count along the entry.
UniProt Q15116, 25-288: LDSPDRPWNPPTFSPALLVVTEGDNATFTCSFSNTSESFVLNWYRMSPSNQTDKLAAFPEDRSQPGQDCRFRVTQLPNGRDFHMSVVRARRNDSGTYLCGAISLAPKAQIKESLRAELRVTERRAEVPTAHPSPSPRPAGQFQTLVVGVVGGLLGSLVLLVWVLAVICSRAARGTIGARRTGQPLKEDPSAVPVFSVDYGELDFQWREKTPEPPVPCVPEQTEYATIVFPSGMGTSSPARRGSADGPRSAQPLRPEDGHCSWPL

The values below come from patent publication US20240148877A1.

Take “InVivoSIM anti-human-PD-1 (Nivolumab Biosimilar) (antibody)”: the EC50 (PD-1/PD-L1 Blockade Bioassay, luminescence) was 1.04 µg/mL.
